The values below come from article PMC6190829 (Journal of medicinal chemistry, 2018).

This test deals with HaCaT cells. Description: Immunoblot of NRF2, NQO1, GCLM protein levels. The class given is cell-based, human. To be noted: 10 μM.

As for `COc1ccc(S(=O)(=O)N(CC(=O)O)c2ccc(N(CC(=O)O)S(=O)(=O)c3ccc(OC)cc3)c3ccccc23)cc1` [Compound 6a], under “6 h, vs DMSO”, the NQO1 protein level entry is recorded as “modest increase” and the NRF2 protein level result was “modest increase”. Also, where the note is “24 h, vs vehicle”, the GCLM protein level result is “significantly higher”, the NQO1 protein level entry is on record as “Increased” and the NRF2 protein level result is recorded as “Increased”.
